Protein sequences, listed by entry. Tags and fused reporters are not part of them.
UniProt O67625, whole entry: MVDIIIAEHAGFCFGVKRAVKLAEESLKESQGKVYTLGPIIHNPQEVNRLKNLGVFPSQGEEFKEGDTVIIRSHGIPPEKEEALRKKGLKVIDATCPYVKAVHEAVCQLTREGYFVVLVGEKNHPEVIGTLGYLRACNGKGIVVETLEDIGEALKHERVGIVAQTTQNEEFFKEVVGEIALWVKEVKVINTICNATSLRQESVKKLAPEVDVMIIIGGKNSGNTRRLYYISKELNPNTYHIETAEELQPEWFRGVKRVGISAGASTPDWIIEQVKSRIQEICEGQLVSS

For the assay, the target named is IspH (LytB), E-4-hydroxy-3-methyl-but-2-enyl diphosphate reductase (Aquifex aeolicus, UniProt O67625). The following applies: IspH inhibition; Ki deduced from IC50 by Cheng-Prusoff equation.
In the case of `O=P(O)(O)OP(=O)(O)OCCC1CO1` (stereo not shown), the Ki (commonly a measure of affinity in units of concentration, obtained from inhibition or displacement) amounted to 66 µM.
With `O=P(O)(O)C(CCCCS)P(=O)(O)O` the figure was 89 µM; with `Cc1ccnc(NC(P(=O)(O)O)P(=O)(O)O)c1`, 14 µM; with `O=P(O)(O)OP(=O)(O)OCc1cccnc1`, 3.2 µM.
